Laboratory results taken from PubChem BioAssay (Tox21).
“And” between values parts separate entries of the source, which are not always exact repeats. Identical values can stand only once. This is a selection; strong and weak results do not stand in their true shares. Results filed as inconclusive are left out. A call without a number means that no potency is given here. The source made the active and inactive calls. Calls follow the shape of the full dose curve.

The chains behind the UniProt entries cited, without tags or fusion partners.
UniProt P22303, whole entry: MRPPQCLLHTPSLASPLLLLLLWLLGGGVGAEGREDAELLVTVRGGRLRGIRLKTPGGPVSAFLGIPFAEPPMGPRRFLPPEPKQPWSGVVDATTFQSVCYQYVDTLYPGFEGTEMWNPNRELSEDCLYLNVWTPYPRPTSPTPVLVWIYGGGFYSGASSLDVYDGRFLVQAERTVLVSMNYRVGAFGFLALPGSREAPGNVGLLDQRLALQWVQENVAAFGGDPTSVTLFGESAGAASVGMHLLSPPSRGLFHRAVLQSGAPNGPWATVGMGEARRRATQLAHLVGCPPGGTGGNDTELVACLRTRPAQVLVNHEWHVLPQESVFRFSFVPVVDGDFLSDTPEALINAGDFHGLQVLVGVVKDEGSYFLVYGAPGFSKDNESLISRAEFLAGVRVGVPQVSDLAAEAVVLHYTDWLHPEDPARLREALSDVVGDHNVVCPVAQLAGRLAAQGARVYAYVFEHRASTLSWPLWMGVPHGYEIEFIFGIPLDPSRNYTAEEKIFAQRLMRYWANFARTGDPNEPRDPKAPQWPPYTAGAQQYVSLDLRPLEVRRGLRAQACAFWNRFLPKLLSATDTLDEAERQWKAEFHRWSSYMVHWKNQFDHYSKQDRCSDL

The compounds below were run against Acetylcholinesterase (Homo sapiens) (UniProt P22303) (assay: Acetylcholinesterase (AChE) small molecule antagonists: colormetric cell-based qHTS assay (AID 1347395; also: nearly all actives have a fitted effect of over 30% in size)). Details: SH-SY5Y cells AChE activity, colorimetric (Ellman); series mostly up to 115 µM.
Text: National Center for Advancing Translational Sciences [NCATS]
Division of Preclinical Innovation [DPI]
U.S. Environmental Protection Agency [EPA]
National Institutes of Environmental Health Sciences [NIEHS]
National Toxicology Program [NTP]
U.S. Food and Drug Administration [FDA]
Acetylcholinesterase (AChE) is the primary cholinesterase in the body that hydrolyzes a key neurotransmitter, acetylcholine. Inhibition of AChE activity can lead to neurotoxicity. The known inhibitors include organophosphorous pesticides (OP), chemical warfare agents, drugs, and various phytochemicals.
A homogenous cell-based assay using the Amplite Colormetric acetylcholinesterase assay kit (AAT Bioquest, Sunnyvale, CA) was used to evaluate the chemicals in the Tox21 10K library that inhibit AChE activity. The assay uses 5, 5-dithiobis-(2-nitrobenzoic acid) (DTNB) to quantify the thiocholine produced from the hydrolysis of acetylthiocholine by AChE from the SH-SY5Y cells.
Tox21 Assay Protocol Summary:
For the cell-based AChE assay, 2,000 SH-SY5Y cells in 4 uL/well were dispensed into black, clear-bottom 1536-well plates using a Multidrop Combi dispenser (Thermo Scientific, MA). The assay plates were incubated overnight at 37 C to allow cells to attach to the wells, followed by the transfer of 23 nL of compound or DMSO (vehicle control) by a Pintool Station (Wako Automation, CA). The plates were incubated for 30 min at 37 C and 5% CO2, followed by the addition of 4 uL of detection cocktail solution (DTNB, acetylthiocholine) into each well using a Flying Reagent Dispenser (Beckman Coulter, CA) and then 90 min incubation at 37 C.
Potency is read from the fitted curve at half-maximal effect.

Structure (SMILES)	Potency
O=[N+]([O-])OCC(CO[N+](=O)[O-])(CO[N+](=O)[O-])CO[N+](=O)[O-]	inactive
CP(=O)(O)OCCC[Si](O)(O)O	inactive
O=[N+]([O-])[O-].[NH4+]	inactive
Cc1ccc([N+](=O)[O-])c([N+](=O)[O-])c1	active: 40.8 µM and active: 39.9 µM
[NH4+].[O-][Cl+3]([O-])([O-])[O-]	inactive
CC(C)OP(OC(C)C)OC(C)C	inactive
CN(C)CCCl	inactive
COc1ccc([N+](=O)[O-])cc1[N+](=O)[O-]	active: 39.9 µM
CC(C)N(CCO)C(C)C	inactive
CCOC(=O)N1CCC(=O)CC1	inactive
CCC(=O)N(c1ccccc1)C1CCNCC1	inactive
N=C(N)N[N+](=O)[O-]	inactive
CCN(CC)CCCl	inactive
ClCCOP(OCCCl)OCCCl	inactive
ClCCNCCCl	inactive
CCOP(=O)(Cl)Cl	inactive
CCOP(=O)(CC)OCC	inactive
OCCSCCO	inactive
N#CBr	inactive
COP(C)(=O)OC	inactive
Nc1cc([N+](=O)[O-])cc([N+](=O)[O-])c1O	inactive
Cc1ccc([N+](=O)[O-])cc1[N+](=O)[O-]	active: 55.6 µM and active: 39.9 µM
